Earlier results in patent publication US9050267B2 (Novartis AG, priority 2011, dated 2015).

Settings: cited from earlier work

formoterol fumarate
water solubility: about 1 mg/ml
